Results published in patent EP0973746B1, “SUBSTITUTED 3-CYANO QUINOLINES” (Wyeth Holdings Corporation, priority 1997, dated 1998).

The chains behind the UniProt entries cited, without tags or fusion partners. Residues count along the entry.
UniProt P00533, 25-1210: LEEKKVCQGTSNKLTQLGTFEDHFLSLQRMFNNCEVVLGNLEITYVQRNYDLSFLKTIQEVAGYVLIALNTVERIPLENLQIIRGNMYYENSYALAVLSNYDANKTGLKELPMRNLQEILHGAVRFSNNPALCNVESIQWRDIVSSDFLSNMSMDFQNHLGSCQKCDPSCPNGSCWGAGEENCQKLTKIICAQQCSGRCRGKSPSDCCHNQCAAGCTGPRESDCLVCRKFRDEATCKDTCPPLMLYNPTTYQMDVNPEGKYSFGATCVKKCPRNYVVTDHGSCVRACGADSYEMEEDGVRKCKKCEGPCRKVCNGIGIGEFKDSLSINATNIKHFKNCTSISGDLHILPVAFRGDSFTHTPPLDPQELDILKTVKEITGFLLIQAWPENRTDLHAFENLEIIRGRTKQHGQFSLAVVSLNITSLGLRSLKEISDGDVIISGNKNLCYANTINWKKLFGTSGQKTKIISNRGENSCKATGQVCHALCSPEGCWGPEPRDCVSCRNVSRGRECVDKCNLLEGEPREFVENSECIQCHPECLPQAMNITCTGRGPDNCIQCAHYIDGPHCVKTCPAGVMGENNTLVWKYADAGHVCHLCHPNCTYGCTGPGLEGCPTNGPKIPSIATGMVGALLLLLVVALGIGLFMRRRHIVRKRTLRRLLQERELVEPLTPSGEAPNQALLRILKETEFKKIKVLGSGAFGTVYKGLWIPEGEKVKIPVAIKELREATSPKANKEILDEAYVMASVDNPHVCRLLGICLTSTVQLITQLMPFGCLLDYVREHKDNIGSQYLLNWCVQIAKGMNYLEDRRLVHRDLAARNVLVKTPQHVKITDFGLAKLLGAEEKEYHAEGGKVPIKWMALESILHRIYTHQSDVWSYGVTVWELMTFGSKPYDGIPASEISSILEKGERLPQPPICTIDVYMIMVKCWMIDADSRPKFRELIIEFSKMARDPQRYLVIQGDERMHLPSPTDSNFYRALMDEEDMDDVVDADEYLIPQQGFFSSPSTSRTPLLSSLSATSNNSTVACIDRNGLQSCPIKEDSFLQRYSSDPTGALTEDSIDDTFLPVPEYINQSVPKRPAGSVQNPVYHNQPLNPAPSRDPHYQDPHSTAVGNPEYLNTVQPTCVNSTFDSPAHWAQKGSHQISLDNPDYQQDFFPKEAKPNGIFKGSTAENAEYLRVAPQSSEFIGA

What was measured:
[1] = target: epidermal growth factor receptor kinase (Homo sapiens, UniProt P00533); test: biochemical
[2] = target: recombinant human MEK 1 (MAPKK) and recombinant human ERK2 (MAPK); test: Mitogen Activated Protein Kinase (MAPK) assay, two component coupled MEK 1 / ERK2; type: biochemical; details: separate entries for the same compound = evaluated more than one time;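 further: MEK 1-activated ERK2 phosphorylates MBP or Myc peptide with 33P-ATP, filter capture and scintillation counting, inhibitor preincubated with ERK2 30 min at 0 °C, inhibition relative to uninhibited control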

SMILES	pIC50 [1]	pIC50 [2]
COc1cc2ncc(C#N)c(Nc3cccc(C(F)(F)F)c3)c2cc1OC [Example 42, 4-[(3-Trifluoromethylphenyl)amino]-6,7-dimethoxy-3-quinolinecarbonitrile]	5.82	
CN1CCN(CC#CC(=O)Nc2ccc3ncc(C#N)c(Nc4cccc(Br)c4)c3c2)CC1 [Example 190, N-[4-[(3-Bromophenyl)amino]-3-cyano-6-quinolinyl]-4-(N-methylpiperazino)-2-butynamide]		4.92

pIC50: −log10 of the molar value.
